Results on one compound are retold here after BindingDB's records for patent US9694002 (Genentech Inc, 2017).

Chains of the proteins cited; added tags and fusions are not shown.
UniProt Q15858, whole entry: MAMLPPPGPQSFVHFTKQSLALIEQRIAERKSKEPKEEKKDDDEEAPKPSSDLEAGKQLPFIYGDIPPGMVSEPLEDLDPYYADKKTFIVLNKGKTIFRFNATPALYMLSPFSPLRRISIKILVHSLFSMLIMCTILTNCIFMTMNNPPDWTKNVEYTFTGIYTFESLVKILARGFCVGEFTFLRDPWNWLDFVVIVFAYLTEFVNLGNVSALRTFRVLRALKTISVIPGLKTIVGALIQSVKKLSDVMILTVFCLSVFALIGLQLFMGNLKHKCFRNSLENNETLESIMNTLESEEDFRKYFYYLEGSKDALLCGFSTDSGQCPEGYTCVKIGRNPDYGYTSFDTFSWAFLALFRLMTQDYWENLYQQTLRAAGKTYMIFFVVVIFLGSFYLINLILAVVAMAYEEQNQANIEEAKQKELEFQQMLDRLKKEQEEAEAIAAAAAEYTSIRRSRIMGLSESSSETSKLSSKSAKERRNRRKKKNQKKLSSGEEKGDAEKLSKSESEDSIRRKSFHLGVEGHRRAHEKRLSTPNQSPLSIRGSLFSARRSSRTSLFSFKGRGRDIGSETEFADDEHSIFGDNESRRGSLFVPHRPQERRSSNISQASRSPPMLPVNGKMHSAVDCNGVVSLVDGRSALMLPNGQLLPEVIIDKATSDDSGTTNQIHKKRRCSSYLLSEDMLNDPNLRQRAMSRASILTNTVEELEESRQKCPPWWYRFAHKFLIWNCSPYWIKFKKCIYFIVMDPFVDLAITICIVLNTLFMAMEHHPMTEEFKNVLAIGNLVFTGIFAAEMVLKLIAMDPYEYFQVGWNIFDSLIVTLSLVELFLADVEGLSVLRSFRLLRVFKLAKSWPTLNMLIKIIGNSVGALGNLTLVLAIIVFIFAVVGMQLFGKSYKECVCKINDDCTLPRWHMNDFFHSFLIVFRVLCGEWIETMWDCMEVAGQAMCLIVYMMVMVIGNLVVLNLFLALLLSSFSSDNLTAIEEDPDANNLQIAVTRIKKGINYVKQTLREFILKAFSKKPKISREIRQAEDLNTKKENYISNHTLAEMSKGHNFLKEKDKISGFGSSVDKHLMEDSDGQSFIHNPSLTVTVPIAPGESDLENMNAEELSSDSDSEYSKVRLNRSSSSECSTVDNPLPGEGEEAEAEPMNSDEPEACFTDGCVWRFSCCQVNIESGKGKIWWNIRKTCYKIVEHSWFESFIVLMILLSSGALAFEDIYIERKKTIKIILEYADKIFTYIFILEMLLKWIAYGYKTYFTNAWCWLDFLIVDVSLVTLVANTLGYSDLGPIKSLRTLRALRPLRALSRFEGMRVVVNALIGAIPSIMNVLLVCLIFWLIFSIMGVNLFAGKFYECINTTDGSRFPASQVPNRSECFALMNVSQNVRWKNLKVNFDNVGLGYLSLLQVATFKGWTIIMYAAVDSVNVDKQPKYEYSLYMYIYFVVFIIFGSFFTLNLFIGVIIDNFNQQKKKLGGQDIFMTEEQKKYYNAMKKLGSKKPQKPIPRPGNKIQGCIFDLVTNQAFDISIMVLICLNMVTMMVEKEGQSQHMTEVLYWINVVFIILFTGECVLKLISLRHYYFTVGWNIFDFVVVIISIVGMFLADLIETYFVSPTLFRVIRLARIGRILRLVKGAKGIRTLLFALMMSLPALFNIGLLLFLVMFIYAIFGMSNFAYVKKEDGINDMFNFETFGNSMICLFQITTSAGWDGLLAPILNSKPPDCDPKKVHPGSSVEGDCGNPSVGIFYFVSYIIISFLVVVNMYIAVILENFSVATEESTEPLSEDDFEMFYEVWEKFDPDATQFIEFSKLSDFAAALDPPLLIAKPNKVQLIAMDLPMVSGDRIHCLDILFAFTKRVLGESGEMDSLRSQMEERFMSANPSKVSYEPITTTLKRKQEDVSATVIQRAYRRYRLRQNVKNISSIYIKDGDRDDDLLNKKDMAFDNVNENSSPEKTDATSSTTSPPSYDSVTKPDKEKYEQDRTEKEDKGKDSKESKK

Molecules are shown by their SMILES.

The experiment has as its target Sodium channel protein type 9 subunit alpha (Homo sapiens, UniProt Q15858). Kind of experiment: Radioligand Binding Assay. The conditions noted are these: pH 7.4; 25 °C.

As for `CS(=O)(=O)NC(=O)c1cc(C2CC2)c(CN2CCC(Oc3ccc(F)cc3Cl)CC2)cc1F` [US9694002, 505], the IC50 (commonly the concentration that gives 50% inhibition) was 28 nM.
